A selection: hits, their analogues and other compounds. The true share with any hit is near 2.1%.
SMARCA2 act – SMARCA2 (BRM) function activators, primary screen, cell-based, luminescence, high throughput. MG213 cells, MMTV-luciferase reporter, dexamethasone, overnight. activation, % at 9.1 µM. 370,000 compounds, 1% hits; in the data active = activation above about 7.8%;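 also: 0% = vehicle wells and 100% = reference activator wells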
GSIS activator – GLuc luminescence reporter in INS-1E cells, primary screen for activators of glucose-dependent secretion of insulin; 370,000 compounds, 0.61% hits; activation, % at 16.6 µM; INS-1E GLuc reporter insulin secretion, 2-3 h; AID 743287, 2014;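 active = lowest replicate activation of at least 40%, so every replicate reaches that level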;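 also: 0% = median of neutral control wells and 100% = median of IBMX positive control wells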
Yeast UUG start – alters start codon recognition fidelity in yeast | S. cerevisiae UUG-firefly luciferase reporter, luminescence/redox ratio | activity score, % at 18.7 µM | 350,000 compounds, 0.13% hits | AID 602363;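 active = replicate mean at a twofold rise or more, about +100% in these data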;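 note: firefly luciferase made from a UUG start codon reports start codon fidelity; reporter light over untreated wells divided by growth signal over untreated wells; some hits fall short of that in this replicate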
PDI turbidity – inhibitors of human PDI, primary screen, biochemical, turbidity, single point, plate reader; Protein disulfide-isomerase (Homo sapiens), P07237; PDI insulin aggregation turbidity, A650, 90 min; inhibition, % at 10 µM; 350,000 compounds, 0.052% hits;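 active = mean inhibition across replicates of 30% or more, whatever share of single replicates reach that level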
NR1D1 modulator – modulators of Rev-erb alpha DNA binding, primary screen, biochemical, FITC-DNA, fluorescence polarization, uHTS; Nuclear receptor subfamily 1 group D member 1 (Homo sapiens), P20393; Rev-erbα–FITC-DNA binding, 90 min; activity, % at 10 µM; 370,000 compounds, 0.79% hits; AID 1259318, 2017;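 active = activity above about 14%, limit read from the data; passing the limit was not always enough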;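 also: 0% = DMSO wells with 35 nM protein and 100% = DMSO wells with 750 nM protein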
ERp5 block – inhibitors of ERp5-driven insulin aggregation, primary screen, biochemical, turbidity, absorbance 650 nm, single point | Protein disulfide-isomerase A6 (Homo sapiens), Q15084 | 90 min | inhibition, % at 9.99 µM | 350,000 compounds, 0.05% hits | AID 651711, 2012;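 active = mean replicate inhibition above about 25%, with every replicate also reaching it, limit read from the data, passing the limit was not always enough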
SMARCA2 conf – SMARCA2 (BRM) function activators, confirmation, cell-based, luminescence, triplicate; shares compounds with SMARCA2 act; MG213 cells, MMTV-luciferase with dexamethasone, overnight; MG213 cells expressing E1A, Rb sequestered; DMSO wells 0%, reference activator 100%; activation, % at 9.1 µM; 3,500 compounds, 30% hits;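 active = activation above its plate's cutoff, the mean activation of tested wells plus 3 SD, cut at about 7.9% in these data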
GAL4-VP16 Luc – GAL4-VP16 luciferase reporter activation, counter-screen for SMARCA2 (BRM) activator project, cell-based, pG5luc, luminescence, high throughput | shares compounds with SMARCA2 act | 3,500 compounds, 41% hits | activation, % at 9.1 µM | HEK293 GAL4-VP16 pG5luc reporter; scaled: DMSO wells 0%, SAHA wells 100% | AID 686939, 2013;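 active = activation above the solvent-only control well mean plus 3 SD, averaged across control plates, cut at about 5.2% in these data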
* marks the source's active call; other numbers are inactive results; x = no result given.

Amino acid sequences for entries named in this document (tags omitted).
Protein disulfide-isomerase A6 (Homo sapiens), Q15084, UniProt Q15084, whole entry, looked up: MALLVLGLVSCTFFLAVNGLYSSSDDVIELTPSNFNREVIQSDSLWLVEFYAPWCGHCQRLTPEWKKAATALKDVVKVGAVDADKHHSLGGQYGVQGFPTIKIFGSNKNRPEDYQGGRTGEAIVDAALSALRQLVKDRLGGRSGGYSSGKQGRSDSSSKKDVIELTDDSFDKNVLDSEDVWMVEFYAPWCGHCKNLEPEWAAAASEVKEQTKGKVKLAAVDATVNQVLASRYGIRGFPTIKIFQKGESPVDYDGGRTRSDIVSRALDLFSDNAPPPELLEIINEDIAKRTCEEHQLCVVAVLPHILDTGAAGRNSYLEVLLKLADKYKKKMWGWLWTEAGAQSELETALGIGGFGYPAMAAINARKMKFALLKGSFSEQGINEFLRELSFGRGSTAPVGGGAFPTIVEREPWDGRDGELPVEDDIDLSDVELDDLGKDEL

#1 CC(C)C[C@@H]1COCc2cn(nn2)CC[C@@H](Cc2ccccc2)C(=O)N1
#2 COc1ccc(S(=O)(=O)N2Cc3ccccc3CC2C(=O)Nc2nccs2)cc1 (stereo not drawn)
#3 Cc1ccc(OCC(O)CN2CCOCC2)c(C)c1 (stereo not drawn)
#4 CCC(=O)N1CC2(C1)[C@H](c1ccccc1)[C@@H](CO)N2C(=O)NC(C)C
#5 Nc1ccc2c(c1)C(=O)c1cc(N)c(Cl)cc1-2
#6 O=C(Nc1ccc(NC(=O)c2ccccc2F)cc1)c1cccs1
#7 CC(=O)Nc1ccc2nc(-c3ccccc3)cn2c1
#8 O=C(Nc1ccc(-c2cn3ccccc3n2)cc1)c1cccs1
Compound	1	2	3	4	5	6	7	8
SMARCA2 act	x	9.8*	8.3*	x	10.6*	8.8*	8.8*	8.1*
GSIS activator	38.1	-8.9	20.0	1.2	x	0.7	2.6	5.2
Yeast UUG start	x	-8.8	-7.6	x	-8.3	-3.3	x	x
PDI turbidity	x	-5.7	-9.4	x	-9.2	-1.5	4.7	-8.6
NR1D1 modulator	x	1.6	-0.9	x	-5.3	-3.5	-4.0	-3.3
ERp5 block	-3.8	x	2.8	-1.1	0.8	-6.8	-2.5	3.5
SMARCA2 conf	x	4.4	-2.2	x	10.9*	4.8	9.4*	28.2*
GAL4-VP16 Luc	x	2.8	0.9	x	2.9	7.7*	7.6*	13.6*

SMARCA2 conf: entries above that show a hit
cpd | SMILES | SMARCA2 act | GSIS activator | Yeast UUG start | PDI turbidity | NR1D1 modulator | ERp5 block | SMARCA2 conf
5 | Nc1ccc2c(c1)C(=O)c1cc(N)c(Cl)cc1-2 | 10.6* | x | -8.3 | -9.2 | -5.3 | 0.8 | 10.9*
7 | CC(=O)Nc1ccc2nc(-c3ccccc3)cn2c1 | 8.8* | 2.6 | x | 4.7 | -4.0 | -2.5 | 9.4*
8 | O=C(Nc1ccc(-c2cn3ccccc3n2)cc1)c1cccs1 | 8.1* | 5.2 | x | -8.6 | -3.3 | 3.5 | 28.2*

(further entries)
#9 Cc1ccn(-c2ccc(NC(=O)c3cccs3)cc2)n1
#10 O=C(N[C@H]1CC[C@H](CCNS(=O)(=O)c2ccccc2Cl)O[C@@H]1CO)c1ccc(F)cc1
#11 N=c1c2ccccc2nc2n1CCCCCCC2
#12 COc1ccc(N=Nc2ccc(N)nc2N)cc1
#13 Nc1ccc(N=Nc2ccc(O)cc2)c(N)n1
#14 COc1cc(S(=O)(=O)N2CCOCC2)cc(C(=O)c2nccn2C)c1OC
#15 C=CC[C@]1(C(=O)NCc2ccccc2)N=C(c2ccc(OCCCO)cc2)O[C@H]1c1ccccc1
#16 COc1cc(Cl)nn(-c2ccccc2)c1=O
Compound	9	10	11	12	13	14	15	16
SMARCA2 act	8.0*	x	9.0*	12.5*	-0.5	9.3*	x	11.4*
GSIS activator	6.1	-0.7	8.5	-11.2	-15.8	-7.4	x	12.0
Yeast UUG start	-30.8	1.5	-3.8	-31.5	x	7.2	-6.1	-17.1
PDI turbidity	-7.7	x	-0.5	7.4	1.5	-0.5	x	1.9
NR1D1 modulator	-3.4	x	-3.5	12.5	11.5	-5.5	x	3.2
ERp5 block	-15.6	-3.2	5.2	5.1	7.3	-3.0	-1.1	x
SMARCA2 conf	9.0*	x	3.3	11.4*	x	-1.5	x	-0.5
GAL4-VP16 Luc	7.9*	x	1.7	20.1*	x	1.8	x	2.1

#17 O=c1c(Cl)cc(Cl)nn1-c1ccccc1
#18 CO[C@H]1CN(C)C(=O)c2ccc(NC(C)=O)cc2OC[C@@H](C)N(C(=O)c2ccccn2)C[C@H]1C
#19 O=C(NCCC1=CCCCC1)c1coc(=O)c(Br)c1
#20 Cc1ccc(S(=O)(=O)N2CCCCC2)cc1C(=O)NCCC1=CCCCC1
#21 O=C(NCCC1=CCCCC1)c1ccc(=O)oc1
#22 O=C(COC(=O)c1ccccc1Br)NCCC1=CCCCC1
#23 O=C(COC(=O)c1cc(Br)c(Br)s1)NCCC1=CCCCC1
#24 O=C(NCCc1ccccc1)c1coc(=O)c(Br)c1
#25 Cc1cc(C(=O)NCCC2=CCCCC2)c(C)o1
Compound	17	18	19	20	21	22	23	24	25
SMARCA2 act	0.5	x	19.7*	0.6	-4.2	6.6	9.3*	27.5*	11.1*
GSIS activator	-3.2	-14.0	x	-9.6	x	-4.2	18.4	-18.4	-11.9
Yeast UUG start	x	13.2	0.6	x	-4.3	-0.9	-11.9	-14.2	-5.7
PDI turbidity	4.1	x	-1.8	-3.1	-13.4	1.1	-2.5	-0.1	7.5
NR1D1 modulator	-7.8	x	9.4	-5.5	-1.7	-7.4	-1.9	6.9	-0.5
ERp5 block	-3.1	-1.8	x	-2.1	x	-1.4	x	2.2	-0.4
SMARCA2 conf	x	x	-1.4	x	x	x	-3.2	-8.8	19.5*
GAL4-VP16 Luc	x	x	5.5*	x	x	x	1.6	4.7	11.8*
